Where a chain is given by its changes, count along the chain named. Several values for one entry are separate records, joined by “and”; a condition that tells them apart may be missing. Equal entries are not always repeated.
Tests used:
human VEGF (hVEGF) [1] = biological target: T1, human VEGF (hVEGF) (human, UniProt P15692-4 27-191, limits assumed); assay: cell-based or functional assay
[2] = biological target: T2, human VEGF residues 8-109 (hVEGF8-109) (human, UniProt P15692 214-315); assay: BIAcore-3000, Fab over immobilized hVEGF8-109
T2 construct: range 8-109; Dimer in the crystals (one VEGF dimer with 2 Fab); Range counts on the mature protein, not on the precursor

Chains of the proteins cited; added tags and fusions are not shown. A line that says so, or that is headed by a name, gives the form on record, which may keep a tag or linker. Residues count along the entry.
UniProt P15692, other isoform, or with tags, fused parts or gaps limits assumed: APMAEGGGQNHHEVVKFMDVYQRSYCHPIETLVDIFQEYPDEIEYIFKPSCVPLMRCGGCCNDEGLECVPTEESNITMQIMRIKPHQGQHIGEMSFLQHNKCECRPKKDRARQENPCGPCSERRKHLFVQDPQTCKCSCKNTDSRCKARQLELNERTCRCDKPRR
UniProt P15692, 214-315 limits assumed: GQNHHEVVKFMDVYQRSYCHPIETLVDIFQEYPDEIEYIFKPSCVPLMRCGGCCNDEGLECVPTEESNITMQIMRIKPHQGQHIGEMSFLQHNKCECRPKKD
UniProt P15692, 207-315 limits assumed: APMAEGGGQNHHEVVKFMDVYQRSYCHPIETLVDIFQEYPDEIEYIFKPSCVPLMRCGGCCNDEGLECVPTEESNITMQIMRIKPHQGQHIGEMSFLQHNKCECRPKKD
UniProt Q00731, other isoform, or with tags, fused parts or gaps limits assumed: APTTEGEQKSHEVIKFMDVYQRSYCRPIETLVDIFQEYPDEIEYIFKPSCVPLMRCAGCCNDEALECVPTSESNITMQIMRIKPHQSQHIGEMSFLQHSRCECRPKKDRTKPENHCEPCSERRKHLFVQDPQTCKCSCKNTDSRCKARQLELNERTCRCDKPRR

murine VEGF (mVEGF) [3] = biological target: T3, murine VEGF (mVEGF) (mouse, UniProt Q00731-2 27-190, limits assumed); assay: Fab and mVEGF; on rate by fluorescence quenching in solution (Table 1)
T3 construct: also called mouse VEGF; mVEGF-A

murine VEGF (mVEGF) [4] = biological target: T3, murine VEGF (mVEGF); assay: solution phase competition assay
murine VEGF (mVEGF) [5] = biological target: T3, murine VEGF (mVEGF); assay: Fab and mVEGF (Table 1)
human VEGF (hVEGF) [6] = biological target: T1, human VEGF (hVEGF); assay: SPR
murine VEGF (mVEGF) [7] = biological target: T3, murine VEGF (mVEGF); assay: SPR
murine VEGF (mVEGF) [8] = biological target: T3, murine VEGF (mVEGF); assay: cell-based or functional assay
murine VEGF (mVEGF) [9] = biological target: T3, murine VEGF (mVEGF); assay: Fab and mVEGF, koff/kon (Table 1)
murine VEGF (mVEGF) [10] = biological target: T3, murine VEGF (mVEGF); assay: SPR (Table 1)
murine VEGF (mVEGF) [11] = biological target: T3, murine VEGF (mVEGF); assay: fluorescence quenching assay
human VEGF (hVEGF) [12] = biological target: T1, human VEGF (hVEGF); assay: SPR, fluorescence quenching and solution competition
human VEGF (hVEGF) [13] = biological target: T1, human VEGF (hVEGF); assay: solution competition binding assays with phage-displayed proteins (FIG. 7)
human VEGF (hVEGF) [14] = biological target: T1, human VEGF (hVEGF); assay: binding kinetics (FIG. 32)
[15] = biological target: T4, phage-displayed hVEGF (hVEGF1-109) (human, UniProt P15692 207-315); assay: competitive solution binding ELISA with hVEGF displaying phage
T4 construct: range 1-109; Fusion partner on phage not described; also called hVEGF displaying phage; hVEGF-phage

murine VEGF (mVEGF) [16] = biological target: T3, murine VEGF (mVEGF); assay: solution competition binding assay, Fab on phage (FIG. 7)
human VEGF (hVEGF) [17] = biological target: T1, human VEGF (hVEGF); assay: BIAcore (FIG. 8)
murine VEGF (mVEGF) [18] = biological target: T3, murine VEGF (mVEGF); assay: BIAcore (FIG. 8)
human VEGF (hVEGF) [19] = biological target: T1, human VEGF (hVEGF); assay: competition-binding phage ELISA at 25 C
murine VEGF (mVEGF) [20] = biological target: T3, murine VEGF (mVEGF); assay: competition-binding phage ELISA at 25 C
murine VEGF (mVEGF) [21] = biological target: T3, murine VEGF (mVEGF); assay: Fab and mVEGF; value in parentheses, method not explained (Table 1)
murine VEGF (mVEGF) [22] = biological target: T3, murine VEGF (mVEGF); assay: Fab and mVEGF; on rate by fluorescence quenching in solution, with BIAcore SPR (Table 1)
murine VEGF (mVEGF) [23] = biological target: T3, murine VEGF (mVEGF); assay: BIAcore-3000, Fab over immobilized mVEGF
human VEGF (hVEGF) [24] = biological target: T1, human VEGF (hVEGF); assay: BIAcore-3000, Fab over immobilized hVEGF
murine VEGF (mVEGF) [25] = biological target: T3, murine VEGF (mVEGF); assay: data not shown

B1: YADS2 Fab (Fab, V domains shown)
VH: EVQLVESGGGLVQPGGSLRLSCAASGFAISDYDIHWVRQAPGKGLEWVADIAPYAGATAYADSVKGRFTISADTSKNTAYLQMNSLRAEDTAVYYCSRSSYAYYAAMDYWGQGTLVTVSS
VL: DIQMTQSPSSLSASVGDRVTITCRASQSYAYAVAWYQQKPGKAPKLLIYDASYLYSGVPSRFSGSGSGTDFTLTISSLQPEDFATYYCQQAYSSPDTFGQGTKVEIKR
Human VEGF (hVEGF) [1]
  VEGF induced HUVEC proliferation, IC50: ~12 nM
[2]
  Kd: 10 nM
  koff: 0.01 s⁻¹
  kon: 1e+06 M⁻¹ s⁻¹

B2: G6-31 Fab (Fab, V domains shown)
VH: EVQLVESGGGLVQPGGSLRLSCAASGFTISDYWIHWVRQAPGKGLEWVAGITPAGGYTYYADSVKGRFTISADTSKNTAYLQMNSLRAEDTAVYYCARFVFFLPYAMDYWGQGTLVTVSS
VL: B1 VL with S28D, Y29V, A30S, Y31T, D50S, Y53F, A91G, S93G, S94N, D96F
notes: To be rechecked; also called Fab-G6-31
Murine VEGF (mVEGF) [3]
  kon: 2.16e+06 M⁻¹ s⁻¹
Murine VEGF (mVEGF) [4]
  IC50: 0.03 nM
  fold improvement in IC50 over G6: 20 to 60 fold
Murine VEGF (mVEGF) [5]
  koff: 3.5e-05 s⁻¹
Human VEGF (hVEGF) [6]
  fold improvement in off rate over G6: 8 fold
Murine VEGF (mVEGF) [7]
  fold improvement in off rate over G6: 13 fold
Human VEGF (hVEGF) [1]
  HuVEC growth inhibition, improvement over G6: 100 fold
Murine VEGF (mVEGF) [8]
  HuVEC growth inhibition, improvement over G6: 100 fold
Murine VEGF (mVEGF) [9]
  Kd: 0.016 nM
Murine VEGF (mVEGF) [10]
  fold improvement in off-rate over G6: ~4 fold
Murine VEGF (mVEGF) [11]
  fold improvement in on-rate over G6: 8 fold

B3: G6-8 Fab (Fab, V domains shown)
VH: B2 VH
VL: B1 VL with S28D, Y29V, A30S, Y31T, D50S, Y53F, A91G, Y92A, S93G, D96L
notes: To be rechecked
Murine VEGF (mVEGF) [3]
  kon: 1.68e+06 M⁻¹ s⁻¹
Murine VEGF (mVEGF) [5]
  koff: 0.000129 s⁻¹
Human VEGF (hVEGF) [12]
  binding result: binds
Murine VEGF (mVEGF) [9]
  Kd: 0.077 nM
Murine VEGF (mVEGF) [11]
  fold improvement in on-rate over G6: 6 fold

B4: G6-23 Fab (Fab, V domains shown)
VH: B2 VH
VL: DIQMTQSPSSLSASVGDRVTITCRASQDVSTAVAWYQQKPGKAPKLLIYSASFLYSGVPSRFSGSGSGTDFTLTISSLQPEDFATYYCKQGYANPWTFGQGTKVEIKR
notes: also called Fab-G6-23; FabG6-23
Murine VEGF (mVEGF) [3]
  kon: 5.66e+06 M⁻¹ s⁻¹
Murine VEGF (mVEGF) [4]
  IC50: 0.01 nM
  fold improvement in IC50 over G6: 20 to 60 fold
Human VEGF (hVEGF) [13]
  IC50: 0.02 nM
Murine VEGF (mVEGF) [5]
  koff: 0.000121 s⁻¹
Human VEGF (hVEGF) [14]
  koff: 0.0001 s⁻¹ and 0.0002 s⁻¹
  kon: > 1e+06 M⁻¹ s⁻¹
[15]
  IC50: 0.02 nM
Murine VEGF (mVEGF) [16]
  IC50: 0.02 nM
Human VEGF (hVEGF) [1]
  HuVEC growth inhibition, improvement over G6: 100 fold
Murine VEGF (mVEGF) [8]
  HuVEC growth inhibition, improvement over G6: 100 fold
Murine VEGF (mVEGF) [9]
  Kd: 0.021 nM
Human VEGF (hVEGF) [17]
  fold better Kd than G6: 7 fold
Murine VEGF (mVEGF) [18]
  fold better Kd than G6: 7 fold
Murine VEGF (mVEGF) [11]
  fold improvement in on-rate over G6: 20 fold

B5: G6 Fab (Fab, V domains shown)
VH: B2 VH
VL: B4 VL with K89Q, G91S, A93T, N94T, W96P
notes: also called G6 antibody; FabG6
Murine VEGF (mVEGF) [4]
  IC50: 0.67 nM
Murine VEGF (mVEGF) [5]
  koff: 0.00016 s⁻¹
Human VEGF (hVEGF) [19]
  IC50: 0.5 to 1 nM
Murine VEGF (mVEGF) [20]
  IC50: 0.5 to 1 nM
Murine VEGF (mVEGF) [21]
  kon: 193000 M⁻¹ s⁻¹
Murine VEGF (mVEGF) [22]
  kon: 175000 M⁻¹ s⁻¹
Murine VEGF (mVEGF) [9]
  Kd: 0.91 nM

B6: YADS1 Fab (Fab, V domains shown)
VH: EVQLVESGGGLVQPGGSLRLSCAASGFDIYDDDIHWVRQAPGKGLEWVAYIAPSYGYTDYADSVKGRFTISADTSKNTAYLQMNSLRAEDTAVYYCSRSSDASYSYSAMDYWGQGTLVTVSS
VL: DIQMTQSPSSLSASVGDRVTITCRASQASYSSVAWYQQKPGKAPKLLIYAASYLYSGVPSRFSGSGSGTDFTLTISSLQPEDFATYYCQSSASPATFGQGTKVEIKR
notes: Purified free Fab from E. coli
Murine VEGF (mVEGF) [23]
  Kd: > 1000 nM
[2]
  Kd: 1.8 nM
  koff: 0.0005 s⁻¹
  kon: 300000 M⁻¹ s⁻¹

B7: YADS3 Fab (Fab, V domains shown)
VH: B1 VH with A28S, D50A, A55S, A57S, A59Y, A105S
VL: B1 VL with S28A, Y29S, A30Y, A32D, D50A, A91Y, S93Y, S94A, D96A
Murine VEGF (mVEGF) [23]
  Kd: 3.7 nM
  koff: 0.005 s⁻¹
  kon: 2e+06 M⁻¹ s⁻¹
[2]
  Kd: 2 nM
  koff: 0.003 s⁻¹
  kon: 1e+06 M⁻¹ s⁻¹

B8: Fab-YS1 (Fab, V domains shown)
VH: EVQLVESGGGLVQPGGSLRLSCAASGFSISSSSIHWVRQAPGKGLEWVAYISPSSGSTSYADSVKGRFTISADTSKNTAYLQMNSLRAEDTAVYYCSRYYSSSYYYSYYYAMDYWGQGTLVTVSS
VL: B1 VL with A91S, S93Y, D96Y
notes: also called YS1 Fab
Human VEGF (hVEGF) [24]
  Kd: 60 nM
  koff: 0.0028 s⁻¹
  kon: 50000 M⁻¹ s⁻¹

B9: B20 Fab (Fab, V domains shown)
VH: EVQLVESGGGLVQPGGSLRLSCAASGFTINASWIHWVRQAPGKGLEWVGAIYPYSGYTNYADSVKGRFTISADTSKNTAYLQMNSLRAEDTAVYYCARWGHSTSPWAMDYWGQGTLVTVSS
VL: B4 VL with K89Q, G91S, A93T, N94T, W96P
notes: also called B20 antibody; B20 clone
Murine VEGF (mVEGF) [25]
  binding result: binds

— US20130315918A1 (published 2013)
